Laboratory results as given in the supplement of paper PMC11403291.

Protein sequences, listed by entry. Tags and fused reporters are not part of them. Lines headed by an entry give the natural chain unless they say otherwise; changes in a name come on top.
UniProt P08631: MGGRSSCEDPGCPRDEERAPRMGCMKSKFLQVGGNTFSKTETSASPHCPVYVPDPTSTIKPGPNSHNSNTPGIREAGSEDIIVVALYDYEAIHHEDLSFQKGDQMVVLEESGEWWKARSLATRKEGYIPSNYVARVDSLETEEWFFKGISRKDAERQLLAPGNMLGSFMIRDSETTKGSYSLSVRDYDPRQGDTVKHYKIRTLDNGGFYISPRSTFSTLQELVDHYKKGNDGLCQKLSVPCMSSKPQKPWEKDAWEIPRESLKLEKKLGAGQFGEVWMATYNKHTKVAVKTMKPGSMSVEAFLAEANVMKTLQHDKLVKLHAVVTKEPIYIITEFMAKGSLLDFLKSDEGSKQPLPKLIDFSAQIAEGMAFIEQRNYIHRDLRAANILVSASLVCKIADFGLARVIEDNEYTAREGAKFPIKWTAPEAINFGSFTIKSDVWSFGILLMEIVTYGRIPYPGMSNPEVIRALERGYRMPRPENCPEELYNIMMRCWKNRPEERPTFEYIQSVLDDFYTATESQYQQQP
UniProt P11362, whole entry, looked up: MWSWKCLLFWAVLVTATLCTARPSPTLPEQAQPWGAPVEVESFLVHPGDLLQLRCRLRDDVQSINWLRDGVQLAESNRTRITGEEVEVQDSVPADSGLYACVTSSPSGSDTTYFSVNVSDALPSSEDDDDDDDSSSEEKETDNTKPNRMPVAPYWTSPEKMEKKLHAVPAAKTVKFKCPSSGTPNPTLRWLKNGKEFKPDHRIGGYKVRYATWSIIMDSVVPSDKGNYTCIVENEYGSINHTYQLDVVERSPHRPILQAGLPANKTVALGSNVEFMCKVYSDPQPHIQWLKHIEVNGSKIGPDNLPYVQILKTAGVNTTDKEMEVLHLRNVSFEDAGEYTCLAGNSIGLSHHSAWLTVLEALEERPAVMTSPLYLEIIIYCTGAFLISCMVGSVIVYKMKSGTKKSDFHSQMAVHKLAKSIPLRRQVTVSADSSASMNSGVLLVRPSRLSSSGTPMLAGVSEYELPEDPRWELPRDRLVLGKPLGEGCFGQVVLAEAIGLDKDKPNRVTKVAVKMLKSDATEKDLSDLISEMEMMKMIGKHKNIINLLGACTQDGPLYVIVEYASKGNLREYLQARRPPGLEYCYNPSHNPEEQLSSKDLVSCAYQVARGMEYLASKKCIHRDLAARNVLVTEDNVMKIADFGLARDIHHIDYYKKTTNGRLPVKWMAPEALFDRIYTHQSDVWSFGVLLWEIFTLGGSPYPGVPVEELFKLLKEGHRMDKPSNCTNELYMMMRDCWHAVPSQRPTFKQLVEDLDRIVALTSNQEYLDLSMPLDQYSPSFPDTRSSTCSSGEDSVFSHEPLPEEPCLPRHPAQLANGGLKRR
UniProt Q13464: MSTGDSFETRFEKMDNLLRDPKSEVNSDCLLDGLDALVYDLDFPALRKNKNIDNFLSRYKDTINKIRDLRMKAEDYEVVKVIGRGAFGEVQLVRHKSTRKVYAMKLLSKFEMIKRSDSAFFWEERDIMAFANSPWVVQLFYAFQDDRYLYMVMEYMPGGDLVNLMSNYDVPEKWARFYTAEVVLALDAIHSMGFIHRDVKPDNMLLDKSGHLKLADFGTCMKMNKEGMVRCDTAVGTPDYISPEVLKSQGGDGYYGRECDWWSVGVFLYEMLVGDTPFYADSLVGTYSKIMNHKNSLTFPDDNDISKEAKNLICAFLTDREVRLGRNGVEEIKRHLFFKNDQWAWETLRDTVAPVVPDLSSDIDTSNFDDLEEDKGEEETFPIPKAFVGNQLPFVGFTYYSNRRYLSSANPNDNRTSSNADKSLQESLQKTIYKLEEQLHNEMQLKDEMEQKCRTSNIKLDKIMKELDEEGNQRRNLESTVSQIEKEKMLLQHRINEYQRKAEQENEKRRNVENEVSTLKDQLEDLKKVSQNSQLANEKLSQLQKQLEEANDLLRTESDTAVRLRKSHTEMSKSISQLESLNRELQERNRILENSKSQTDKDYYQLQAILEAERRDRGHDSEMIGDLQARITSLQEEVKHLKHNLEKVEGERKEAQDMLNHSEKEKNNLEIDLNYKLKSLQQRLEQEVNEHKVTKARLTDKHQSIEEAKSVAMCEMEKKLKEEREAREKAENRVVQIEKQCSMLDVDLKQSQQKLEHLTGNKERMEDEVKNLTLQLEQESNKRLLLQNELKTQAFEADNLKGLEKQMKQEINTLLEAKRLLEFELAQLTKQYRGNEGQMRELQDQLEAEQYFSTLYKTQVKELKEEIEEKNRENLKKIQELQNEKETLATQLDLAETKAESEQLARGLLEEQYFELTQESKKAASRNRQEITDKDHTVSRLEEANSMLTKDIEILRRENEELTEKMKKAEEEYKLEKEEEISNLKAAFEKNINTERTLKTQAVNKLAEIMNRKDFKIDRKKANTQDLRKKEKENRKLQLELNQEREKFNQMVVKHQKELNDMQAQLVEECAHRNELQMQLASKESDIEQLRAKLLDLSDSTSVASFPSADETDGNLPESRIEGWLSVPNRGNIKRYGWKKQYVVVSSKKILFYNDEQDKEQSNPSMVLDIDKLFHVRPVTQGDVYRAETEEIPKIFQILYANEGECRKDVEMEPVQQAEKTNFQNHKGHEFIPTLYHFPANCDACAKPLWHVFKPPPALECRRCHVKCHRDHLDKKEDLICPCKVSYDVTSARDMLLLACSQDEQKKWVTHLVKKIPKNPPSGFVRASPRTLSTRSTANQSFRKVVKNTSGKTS

Experiments:
Experiment in all cases: apparent dissociation constant pKd app (kinobead competition) (-log10(M)); higher = stronger binding
HCK = HCK (UniProt P08631)
FGFR1 = FGFR1 (UniProt P11362)
ROCK1 = ROCK1 (UniProt Q13464)
PRKD2 = target: T1, PRKD2 (UniProt Q9BZL6)
T1 sequence (whole entry): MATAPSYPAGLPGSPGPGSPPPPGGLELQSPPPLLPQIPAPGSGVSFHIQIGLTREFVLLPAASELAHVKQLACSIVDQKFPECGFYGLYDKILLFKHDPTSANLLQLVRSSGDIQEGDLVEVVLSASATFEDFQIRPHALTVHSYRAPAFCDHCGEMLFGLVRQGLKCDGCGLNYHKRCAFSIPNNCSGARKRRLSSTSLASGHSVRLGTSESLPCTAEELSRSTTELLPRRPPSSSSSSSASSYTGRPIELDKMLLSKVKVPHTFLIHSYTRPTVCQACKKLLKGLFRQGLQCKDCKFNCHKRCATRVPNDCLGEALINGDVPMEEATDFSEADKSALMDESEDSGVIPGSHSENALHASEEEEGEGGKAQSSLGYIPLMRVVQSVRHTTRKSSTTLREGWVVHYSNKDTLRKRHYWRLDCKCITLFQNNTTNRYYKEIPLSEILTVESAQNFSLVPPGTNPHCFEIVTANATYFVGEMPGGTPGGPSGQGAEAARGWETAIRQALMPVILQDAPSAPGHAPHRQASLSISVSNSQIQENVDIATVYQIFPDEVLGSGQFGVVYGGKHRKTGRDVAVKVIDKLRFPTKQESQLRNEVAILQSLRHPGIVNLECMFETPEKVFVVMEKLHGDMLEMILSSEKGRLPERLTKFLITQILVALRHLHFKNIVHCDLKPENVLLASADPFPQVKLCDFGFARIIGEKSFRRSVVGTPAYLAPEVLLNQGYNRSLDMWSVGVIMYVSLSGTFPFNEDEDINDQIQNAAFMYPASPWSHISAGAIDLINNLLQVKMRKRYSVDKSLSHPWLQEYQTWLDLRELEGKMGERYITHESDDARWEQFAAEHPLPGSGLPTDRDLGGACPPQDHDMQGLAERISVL

CHEK1 = target: T2, CHEK1 (UniProt O14757)
T2 sequence (whole entry): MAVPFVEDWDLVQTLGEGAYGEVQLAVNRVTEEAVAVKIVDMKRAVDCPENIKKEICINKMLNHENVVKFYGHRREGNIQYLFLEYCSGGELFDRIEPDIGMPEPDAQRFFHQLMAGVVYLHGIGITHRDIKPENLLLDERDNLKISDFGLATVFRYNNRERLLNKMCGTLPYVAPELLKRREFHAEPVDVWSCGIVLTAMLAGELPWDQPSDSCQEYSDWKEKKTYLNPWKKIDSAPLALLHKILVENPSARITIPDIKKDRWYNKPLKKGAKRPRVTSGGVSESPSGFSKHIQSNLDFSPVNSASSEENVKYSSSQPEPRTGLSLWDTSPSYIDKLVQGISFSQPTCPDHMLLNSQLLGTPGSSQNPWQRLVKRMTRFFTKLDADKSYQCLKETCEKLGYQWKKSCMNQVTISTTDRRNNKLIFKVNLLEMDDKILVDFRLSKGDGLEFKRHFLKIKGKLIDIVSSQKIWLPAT

TAOK1 = target: T3, TAOK1 (UniProt Q7L7X3)
T3 sequence (whole entry): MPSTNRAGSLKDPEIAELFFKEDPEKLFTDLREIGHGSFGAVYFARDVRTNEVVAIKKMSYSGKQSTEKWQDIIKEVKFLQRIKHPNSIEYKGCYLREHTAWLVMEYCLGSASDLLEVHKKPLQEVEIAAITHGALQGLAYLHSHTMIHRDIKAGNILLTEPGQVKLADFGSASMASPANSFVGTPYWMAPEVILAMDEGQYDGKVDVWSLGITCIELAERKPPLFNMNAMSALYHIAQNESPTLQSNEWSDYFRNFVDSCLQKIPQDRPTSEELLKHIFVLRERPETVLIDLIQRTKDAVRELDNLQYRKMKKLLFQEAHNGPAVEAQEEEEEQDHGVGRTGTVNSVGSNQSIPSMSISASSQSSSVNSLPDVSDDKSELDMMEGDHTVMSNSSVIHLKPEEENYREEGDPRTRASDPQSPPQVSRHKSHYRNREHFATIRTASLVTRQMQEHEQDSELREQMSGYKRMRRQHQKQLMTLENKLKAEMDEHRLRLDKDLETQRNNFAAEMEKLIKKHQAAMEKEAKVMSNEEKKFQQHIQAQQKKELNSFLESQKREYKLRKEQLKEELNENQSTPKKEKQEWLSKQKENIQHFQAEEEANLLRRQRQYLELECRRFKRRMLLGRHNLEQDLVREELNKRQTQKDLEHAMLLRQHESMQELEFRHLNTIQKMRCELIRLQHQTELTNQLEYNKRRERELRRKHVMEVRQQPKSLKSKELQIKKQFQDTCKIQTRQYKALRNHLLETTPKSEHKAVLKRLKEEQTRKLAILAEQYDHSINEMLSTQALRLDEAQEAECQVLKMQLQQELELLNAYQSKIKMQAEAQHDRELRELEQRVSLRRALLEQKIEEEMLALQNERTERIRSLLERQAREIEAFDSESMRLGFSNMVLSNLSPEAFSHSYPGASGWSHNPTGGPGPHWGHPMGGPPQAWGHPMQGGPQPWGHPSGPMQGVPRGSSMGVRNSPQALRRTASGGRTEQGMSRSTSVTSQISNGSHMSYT

apparent dissociation constant pKd app (-log10) (HCK)	apparent dissociation constant pKd app (-log10) (FGFR1)	apparent dissociation constant pKd app (-log10) (ROCK1)	apparent dissociation constant pKd app (-log10) (PRKD2)	apparent dissociation constant pKd app (-log10) (CHEK1)	apparent dissociation constant pKd app (-log10) (TAOK1)	Structure (SMILES)
< 4.7	< 4.6	< 4.5	< 4.6	< 4.7	< 4.6	O=C(c1cc(Cc2n[nH]c(=O)c3ccccc23)ccc1F)N1CCN(C(=O)C2CC2)CC1 [Olaparib]
< 4.7	< 4.6	< 4.5	< 4.6	< 4.7	< 4.6	NC(=O)c1cccc2cn(-c3ccc([C@@H]4CCCNC4)cc3)nc12 [Niraparib]
< 4.7	< 4.6	< 4.5	< 4.6	< 4.7	< 4.6	Cn1ncnc1[C@H]1c2n[nH]c(=O)c3cc(F)cc(c23)N[C@@H]1c1ccc(F)cc1 [Talazoparib]
